How the values were obtained:
MHC = conditions: cited from earlier work
Source text: (§1) Even though less potency is expected from the WT peptide given its weaker binding to HLA-A3, in other instances where peptides modified at the first primary anchor have been examined, weaker binding peptides have still elicited quantifiable functional responses ([16], [23], [24]).

T cell clones = conditions: numerous T cell clones; cited from earlier work
Source text: as §1

[1] = system: T cells transduced with TCR4; test: T cell TNF-α production, TCR4 T cells co-cultured with HLA-A3+ antigen presenting cells; format: cell-based; conditions: co-culture with HLA-A3+ antigen presenting cells, E:T 1:1, 6 h; two independent experiments with three biological replicates
[2] = system: T cells transduced with TCR3; test: T cell TNF-α production, TCR3 T cells co-cultured with HLA-A3+ antigen presenting cells; format: cell-based; conditions: co-culture with HLA-A3+ antigen presenting cells, E:T 1:1, 6 h; two independent experiments with three biological replicates
PIK3CA mutant tumors = conditions: wild-type PIK3CA tumor cells unharmed; cited from earlier work
Source text: We recently described a panel of TCRs that recognize a public neoantigen resulting from a hotspot mutation in the phosphoinositide 3-kinase p110α catalytic subunit (PI3Kα, encoded by PIK3CA) that is presented by HLA-A*03:01 (HLA-A3) ([15]). The neoantigen results from substitution of a leucine for histidine at the first primary anchor (position 2; sequence […] → […]). […] Although the crystallographic struct ...

Compound	MHC binding affinity compared with PIK3CA peptides (MHC)	T cell responses (T cell clones)	cytokine (TNF-α) secretion by TCR4 T cells [1]	cytokine (TNF-α) secretion by TCR3 T cells [2]	T cell destruction of tumors (PIK3CA mutant tumors)
AAGIGILTV [native MART-1 nonamer, native MART-1 shared tumor antigen nonamer]	nearly the same as the PIK3CA WT peptide	measurable responses	–	–	–
CC(C)C[C@H](NC(=O)[C@H](C)N)C(=O)N[C@@H](Cc1c[nH]cn1)C(=O)NCC(=O)NCC(=O)N[C@@H](Cc1c[nH]c2ccccc12)C(=O)N[C@H](C(=O)N[C@H](C(=O)N[C@@H](CCCCN)C(=O)O)[C@@H](C)O)[C@@H](C)O [neoantigen]	–	–	well-recognized	well-recognized	drives T cell destruction of PIK3CA mutant tumors

From PMC11160895, “Dynamic allostery in the peptide/MHC complex enables TCR neoantigen selectivity” (Research Square, 2024)
